The values below come from patent publication US9938240B2, “Fluorinated derivatives of 3-hydroxypyridin-4-ones” (Apotex Technologies Inc., priority 2009, dated 2018).

The nature of this data set: Cyclic voltammetry of iron complexes. In kind it is physicochemical. The settings on record: 0.1M aqueous NaCl.

For Potassium ferricyanide (III), under “pH 7.4”, the “E1/2 vs. Ag/AgCl” value was “+20 mV”, the “E1/2 vs. NHE” value was “+240 mV” and the ΔE was determined as 85 mV. Under “pH 7.4, vs. Ag/AgCl”, this substance showed an Eox of 282 mV and an Ered of 197 mV.
